Assay results as given in ChEMBL document CHEMBL3301361, “Experimental in vitro DMPK and physicochemical data on a set of publicly disclosed compounds”.

Experiment: in vitro
Conditions: human, plasma

Row | fraction unbound at 5 h (PPB) | SMILES | fraction unbound at 5 h
1 | 0.0119 | CC(C)C(NC(=O)c1cc(Cl)ccc1C(F)(F)F)C(=O)c1ccc([N+](=O)[O-])cc1 (stereo not given) | 
2 |  | CC(=O)NC1CC2CCCC(C1)N2C(=O)Nc1ccc(Cl)c(C(F)(F)F)c1 (stereo not given) | 0.0209
3 | 0.0928 | O=C(c1csc2c1CCCC2)N1CCCCC1 | 
4 | 0.0139 | COc1cc(-n2cnc3cc(-c4ccc(Cl)cc4)sc3c2=O)ccc1OCCN1CCCC1 | 
5 | 0.0066 | O=c1c2cc(-c3ccc(Cl)cc3)oc2ccn1-c1ccc2c(cnn2CCN2CCCC2)c1 | 
6 | 0.387 | Cc1cc(-n2cnc3ccc(N[C@@H](C)c4ncc(F)cn4)nc32)n[nH]1 | 
7 | 0.0209 | COc1cc(OC2CCN(C)CC2)c2c(Nc3cccc4c3OCO4)ncnc2c1 | 
8 | 0.0039 | NC(=O)c1cnc(N[C@H]2CCCNC2)c2cc(-c3ccc(F)c(Cl)c3)sc12 | 
9 | 0.0488 | COc1cc(OC)c(S(=O)(=O)N(c2ccc(C)cc2)c2ccc(C)cc2)cc1NC(=O)CCC(=O)O | 
10 | 0.0074 | Cc1ccc(S(=O)(=O)N(C)c2ccc3sc(C)nc3c2)cc1 | 
11 | 0.0321 | Cc1c(OC2CCN(CC3CCN([C@@](C)(Cc4ccc(F)cc4)C(=O)O)CC3)CC2)ccc(Cl)c1Cl | 
12 | 0.0074 | O=C(Nc1cccc(CCO)c1)c1cc2cc(Cl)ccc2[nH]1 | 
13 | 0.0191 | NC(=O)c1cnc(N[C@H]2CCCNC2)c2cc(-c3ccc(F)c(F)c3)sc12 | 
14 | 0.28 | Cc1ccc(C(=O)N2CC3CNCC(C2)O3)cc1NC(=O)CC12CC3CC(CC(C3)C1)C2 | 
15 | 0.0209 | Cc1cc2cc(C)c3nnc(SCC(=O)N4CCN(C(=O)c5ccco5)CC4)n3c2cc1C | 
16 | 0.349 | C[C@H]1O[C@@H](n2cnc3c(N)nc(OC(C4CC4)C(F)(F)F)nc32)[C@H](O)[C@@H]1O (stereo not given in full) | 
17 | 0.0041 | N#Cc1cc(S(=O)(=O)Nc2ncns2)ccc1Oc1cc(Cl)c(F)cc1-c1ccnnc1 | 
18 |  | CC(O)c1ccc2c(c1)N(CCN1CCC(NCc3ccc4c(n3)NC(=O)CO4)CC1)C(=O)CO2 (stereo not given) | 0.112
19 |  | Cc1nc(-c2cccc(C(F)(F)F)c2)sc1C(=O)O | 0.003
20 | 0.004 | Cn1c(=O)c(-c2c(Cl)cccc2Cl)cc2cnc(Nc3ccc(F)cc3)nc21 | 
21 |  | CCc1c(C(=O)C(N)=O)c2c(OCC(N)=O)cccc2n1Cc1ccccc1 | 0.151
22 | 0.0179 | Cn1c(C#N)ccc1-c1ccc2c(c1)C(C)(C)OC(=S)N2 [TANAPROGET] | 
23 | 0.304 | COc1cc(OC)c(S(=O)(=O)NCc2ccccc2N2CCCCC2)cc1NC(=O)CCC(=O)O | 

Row | fraction unbound at 5 h (PPB) | SMILES | fraction unbound at 5 h
24 | 0.0594 | COc1ccccc1CCNCc1cccc(CCNC[C@H](O)c2ccc(O)c3[nH]c(=O)sc23)c1 | 
25 | 0.0018 | Cc1ccc(-c2nnc(SCC(=O)N3CCN(c4ccccc4)CC3)o2)cc1 | 
26 | 0.0818 | Cc1cn([C@H]2CCCN(Cc3ccc(C(=O)O)c(Oc4cccc(F)c4)c3)C2)c(=O)[nH]c1=O | 
27 | 0.0187 | O=C(NCC12CC3CC(CC(C3)C1)C2)c1cc(-n2ncc(=O)[nH]c2=O)ccc1Cl | 
28 | 0.0262 | CN[C@@H](C)C(=O)N[C@H](C(=O)N[C@H]1CCCN(CC(c2ccccc2)c2ccccc2)C1)C1CCCCC1 | 
29 | 0.035 | O=C(NC[C@@H](O)CN1CCC(Oc2ccc(Cl)c(Cl)c2)CC1)c1n[nH]c(=O)c2ccccc12 | 
30 | 0.0043 | Cc1ccc(C(NC(=O)c2ccccc2O)C(=O)Nc2c(C)cccc2C)s1 (stereo not given) | 
31 | 0.0017 | O=[N+]([O-])c1c(Nc2ccc(-n3cncn3)cc2)ncnc1N1CCC(Sc2ccccn2)CC1 | 
32 | 0.0119 | COc1cccc(Nc2nc(NCC3CCCO3)c3ccccc3n2)c1 (stereo not given) | 
33 | 0.0606 | CN1CCCN(C(c2ccccc2)c2ccc(Cl)cc2)CC1 (stereo not given) [HOMOCHLORCYCLIZINE] | 
34 | 0.0209 | CC(=O)Nc1cc2c(ccn2-c2cc(NC3CC3)n3ncc(C#N)c3n2)cc1C | 
35 | 0.0167 | O=C(NC1CC1)c1cn(-c2cccc(C#Cc3cccnc3)c2)c2ncccc2c1=O | 
36 | 0.0084 | CC(C)(C)OC(=O)N1CCC(OCc2nc(-c3ccncc3)no2)CC1 | 
37 | 0.28 | CN[C@@H](C)C(=O)N[C@H](C(=O)N[C@H]1CCCN(CCc2cccc(F)c2)C1)C1CCCCC1 | 
38 | 0.523 | O=C(Nc1ccc(Cl)c(Cl)c1)Nc1ccccc1C(=O)O | 
39 | 0.0171 | C[C@H](CO)Nc1nc(SCc2cccc(F)c2F)nc2[nH]c(=O)c(C#N)cc12 | 
40 | 0.016 | Cc1nocc1C(=O)Nc1ccc(-c2ccccc2OC(F)(F)F)c(N)n1 | 
41 | 0.0818 | O=C(NCc1ccc(OC(F)(F)F)cc1)C1c2ccccc2C(=O)N1CCc1ncccn1 (stereo not given) | 
42 | 0.0418 | CCOc1ccccc1C(=O)NCc1ccco1 | 
43 | 0.0647 | CNC(=O)c1ccc(C)c(-n2c(C)cc(OCc3ccc(F)cc3F)c(Br)c2=O)c1 [PH-797804] | 
44 | 0.0488 | N#Cc1cnn2c(N)cc(-c3cccs3)nc12 | 
45 | 0.355 | Nc1nc(Nc2cccc(Br)c2)c2[nH]cnc2n1 | 
46 |  | O=P1(N(CCCl)CCCl)NCCCO1 (stereo not given) [CYCLOPHOSPHAMIDE ANHYDROUS] | 0.799

Row | fraction unbound at 5 h (PPB) | SMILES | fraction unbound at 5 h
47 | 0.0099 | COc1cc(Nc2nc3c(c(COC4CCCC4)n2)COCC3)ccc1-n1cnc(C)c1 | 
48 | 0.0099 | COc1ccc2nc(C)cc(OCC(=O)NCc3ccccc3)c2c1 | 
49 | 0.0544 | Cc1c(CN(C)C(=O)/C=C/c2cnc3c(c2)CCC(=O)N3)oc2ccccc12 [AFN-1252] | 
50 | 0.013 | CC(=O)c1ncccc1NC(=O)[C@H]1CC[C@H](N2C(=O)[C@@H]3[C@@H]4CC[C@@H](C4)[C@@H]3C2=O)CC1 | 
51 | 0.0313 | O=C(CC1CCN(Cc2ccn(-c3ccc(C(F)(F)F)cc3)c2)CC1)NC(c1ccc(F)cc1)c1cccnc1 (stereo not given) | 
52 | 0.0139 | Cc1cn([C@H]2CCCN(S(=O)(=O)c3ccc(O)c(Oc4cccc(C(F)(F)F)c4)c3)C2)c(=O)[nH]c1=O | 
53 | 0.0167 | NC(=O)[C@@H](CCC(F)(F)F)N(Cc1ccc(-c2ncon2)cc1F)S(=O)(=O)c1ccc(Cl)cc1 | 
54 |  | CN1CCC[C@@H]1Cc1c[nH]c2ccc(Nc3ncccc3[N+](=O)[O-])cc12 | 0.137
55 | 0.0013 | O=c1[nH]c2cc(C(F)(F)F)ccc2n1-c1cc(C(F)(F)F)ccc1O | 
56 | 0.324 | Cn1cnc([N+](=O)[O-])c1Sc1ncnc2nc[nH]c12 [AZATHIOPRINE] | 
57 | 0.253 | CC(C)(N)C(=O)N[C@H](COCc1ccc(F)cc1F)C(=O)N1CCC2=NN(CC(F)(F)F)C(=O)[C@]2(Cc2ccccn2)C1 | 
58 | 0.0171 | O=C(Nc1ccc(Cl)c(C(=O)Nc2cccnc2)c1)c1cccc(Cl)c1 | 
59 | 0.0042 | CC(=O)Nc1ccc(Nc2cc(C)nc3c(-c4ccccc4)cnn23)cc1 | 
60 | 0.0307 | O=C(NCc1ccccc1)c1ccc2cccnc2c1O | 
61 | 0.069 | Nc1scc2c(C(=O)NC3CC3)nn(-c3ccc(F)cc3)c(=O)c12 | 
62 | 0.0219 | Nc1cc(C(=O)Nc2cccc(-c3nnn[nH]3)c2)cc(C(F)(F)F)c1 | 
63 | 0.0544 | COc1cccc2c(O)nc(-c3ccc(C(F)(F)F)cc3)nc12 | 
64 |  | COc1cc(O)c2c(c1)/C=C/C[C@H](O)[C@H](O)C(=O)/C=C\C[C@H](C)OC2=O | 0.0139
65 | 0.0136 | CC(=O)Nc1ccc2c(c1)c(-c1cc(NC3CC3)n3ncc(C#N)c3n1)cn2C | 
66 | 0.0167 | Cc1c(CC(=O)O)c2cc(F)ccc2n1Cc1nc2ccccc2s1 | 
67 | 0.002 | O=C(Nc1cccc(Cl)c1)Nc1nnc(-c2ccncc2)s1 | 
68 | 0.392 | C[C@@](O)(C(=O)Nc1ccc(S(C)(=O)=O)cc1Cl)C(F)(F)F | 
69 | 0.0909 | N#Cc1ccccc1C[C@@H](C(=O)O)N1CCC(CN2CCC(Oc3ccc(Cl)c(Cl)c3)CC2)CC1 | 

Row | fraction unbound at 5 h (PPB) | SMILES | fraction unbound at 5 h
70 | 0.0768 | CCc1c2c(nc3ccc(O)cc13)-c1cc3c(c(=O)n1C2)COC(=O)[C@]3(O)CC [7-ETHYL-10-HYDROXYCAMPTOTHECIN] | 
71 | 0.117 | CN1CCN(CCOc2n[nH]c3ncnc(Nc4ccc(OCc5ccccn5)c(Cl)c4)c23)CC1 | 
72 | 0.0163 | CCC(C)(C)C[C@H](c1ccc(C(=O)O)c(Oc2cccc(Cl)c2)c1)N1CCC[C@H](n2cc(C)c(=O)[nH]c2=O)C1 | 
73 | 0.212 | CN(C)CC/C=C1\c2ccccc2COc2ccccc21 [E-DOXEPIN] | 
74 | 0.0374 | CCc1nn(C2CCCC2)c2c1CCn1c(-c3cccs3)nnc1-2 [TOFIMILAST] | 
75 | 0.0383 | CCC#Cc1cncc(-c2ccc3c(c2)C2(N=C(C)C(N)=N2)[C@]2(CC[C@H](OC)CC2)C3)c1 (stereo not given in full) | 
76 | 0.17 | CCOC(=O)/C=C/[C@H](C[C@@H]1CCNC1=O)NC(=O)[C@@H](CC(=O)[C@@H](NC(=O)c1cc(C)on1)C(C)C)Cc1ccc(F)cc1 | 
77 | 0.0012 | Cn1cc(-c2ccncc2)c(-c2ccc(OCc3ccc4ccccc4n3)cc2)n1 [MARDEPODECT] | 
78 | 0.101 | C1Cc2[nH]nc(-c3nnn[nH]3)c2C1 | 
79 | 0.329 | CCN(C(=O)NCc1ccc(S(C)(=O)=O)cc1)C1CCN(CCC(c2ccccc2)c2ccccc2)CC1 | 
80 | 0.431 | Cc1nc(C(=O)N2CCOC3(CCN(Cc4ccc(Cl)cc4)CC3)C2)cs1 | 
81 | 0.0391 | CN1CCC(CNc2ccc3ncc(-c4cccc(OC(F)(F)F)c4)n3n2)CC1 [SGI-1776] | 
82 | 0.0467 | NC(=O)c1cnc(N[C@H]2CCCNC2)c2cc(-c3ccc(F)cc3F)sc12 | 
83 | 0.194 | COc1ccc(Cc2c(N)n[nH]c2N)cc1 | 
84 | 0.101 | C[C@H](Cc1cccc(CC(=O)NC23CC4CC(CC(C4)C2)C3)c1)NC[C@H](O)c1ccc(O)c(CO)c1 | 
85 | 0.004 | CC[C@H](CO)Nc1nc(SCc2cccc(F)c2F)nc2nc(NC(C)C)sc12 | 
86 | 0.0818 | OCCOCCN1CCN(C(c2ccccc2)c2ccc(Cl)cc2)CC1 (stereo not given) [HYDROXYZINE] | 
87 | 0.0119 | CC(C)(Oc1ccc(C(=O)c2ccc(Cl)cc2)cc1)C(=O)O [FENOFIBRIC ACID] | 
88 | 0.208 | N#Cc1ccc2ccc(=O)n(CCN3CC[C@@H](NCc4cc5c(cn4)OCCO5)[C@@H](O)C3)c2c1 | 
89 | 0.186 | Nc1ncnc2c1ncn2[C@@H]1O[C@H](CSCCCNC(=O)Nc2ccccc2)[C@@H](O)[C@H]1O | 

Row | SMILES | fraction unbound at 5 h (PPB) | fraction unbound at 5 h
90 | CN[C@@H](C)C(=O)N[C@H](C(=O)N[C@H]1CCCN(CCCc2ccccc2)C1)C1CCCCC1 | 0.334 | 
